Data published in patent publication US9422293B2 (dated 2016).

Amino acid sequences for entries named in this document (tags omitted).
UniProt O35433, whole entry: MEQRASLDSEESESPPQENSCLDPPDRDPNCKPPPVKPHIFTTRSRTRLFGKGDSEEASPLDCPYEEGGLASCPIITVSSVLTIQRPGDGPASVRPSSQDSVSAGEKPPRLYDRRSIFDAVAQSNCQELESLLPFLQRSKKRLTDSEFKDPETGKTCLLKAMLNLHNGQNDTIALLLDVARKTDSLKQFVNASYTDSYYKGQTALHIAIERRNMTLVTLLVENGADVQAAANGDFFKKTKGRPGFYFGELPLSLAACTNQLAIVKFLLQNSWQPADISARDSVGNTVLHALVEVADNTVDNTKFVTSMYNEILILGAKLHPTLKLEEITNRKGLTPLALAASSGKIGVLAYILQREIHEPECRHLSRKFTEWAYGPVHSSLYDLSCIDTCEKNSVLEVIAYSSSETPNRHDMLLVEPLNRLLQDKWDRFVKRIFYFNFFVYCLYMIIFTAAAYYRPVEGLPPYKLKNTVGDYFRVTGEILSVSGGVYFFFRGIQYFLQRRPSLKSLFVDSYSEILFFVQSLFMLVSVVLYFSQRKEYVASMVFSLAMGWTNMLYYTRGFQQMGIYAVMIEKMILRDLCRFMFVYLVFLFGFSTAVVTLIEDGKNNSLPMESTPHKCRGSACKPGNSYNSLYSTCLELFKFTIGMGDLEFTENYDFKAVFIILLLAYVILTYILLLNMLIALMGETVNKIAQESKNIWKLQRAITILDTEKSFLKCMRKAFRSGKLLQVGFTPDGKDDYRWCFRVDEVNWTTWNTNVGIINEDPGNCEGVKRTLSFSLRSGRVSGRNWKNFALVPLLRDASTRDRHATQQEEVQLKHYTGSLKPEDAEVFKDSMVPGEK

target: T1, rat TRPV1 (Rattus norvegicus (Rat), UniProt O35433); assay: not given; conditions: read-out: Rat IC50

Structure (SMILES) | IC50
CC(O)CSc1nc2c(c(Nc3ccc(C(F)(F)F)cc3)n1)CCN(c1ncccc1C(F)(F)F)CC2 (stereo not shown) | 290 nM
Cc1nc2c(c(Nc3ccc(C(F)(F)F)cn3)n1)CCN(c1ncccc1C(F)(F)F)CC2 [Example 24, [2-Methyl-7-(3-trifluoromethyl-pyridin-2-yl)-6,7,8,9-tetrahydro-5H-pyrimido[4,5-d]azepin-4-yl]-(5-trifluoromethyl-pyridin-2-yl)-amine] | 290 nM
O=S1(=O)CCN(c2nc3c(c(Nc4ccc(C(F)(F)F)cc4)n2)CCN(c2ncccc2C(F)(F)F)CC3)CC1 | > 20000 nM
O=S(=O)(c1ccc(Nc2nc(N3CCCCC3)nc3c2CCN(c2ncccc2C(F)(F)F)CC3)cc1)C(F)(F)F | 40 nM
Oc1nc2c(c(Nc3ccc(C(F)(F)F)cc3)n1)CCN(c1ncccc1C(F)(F)F)CC2 | > 20000 nM
CSc1nc2c(c(Nc3ccc4c(c3)N(C)CCC4(C)C)n1)CCN(c1ncccc1C(F)(F)F)CC2 | 290 nM
FC(F)(F)c1ccc(Nc2nc(N3CCCOCC3)nc3c2CCN(c2ncccc2C(F)(F)F)CC3)cc1 [Example 237] | 10 nM
CC(Oc1nc2c(c(Nc3ccc(S(=O)(=O)N4CCCC4)cc3)n1)CCN(c1ncccc1C(F)(F)F)CC2)C1CC1 (stereo not shown) | 40 nM
COCc1nc2c(c(Nc3ccc(C(F)(F)F)cc3)n1)CCN(c1ncccc1C(F)(F)F)CC2 [Example 76B] | 91 nM
OCc1cnc(N2CCc3nc(N4CCCCC4)nc(Nc4ccc(C(F)(F)F)cc4)c3CC2)c(Cl)c1 [Example 394, {5-Chloro-6-[2-piperidin-1-yl-4-(4-trifluoromethyl-phenylamino)-5,6,8,9-tetrahydro-pyrimido[4,5-d]azepin-7-yl]-pyridin-3-yl}-methanol] | 290 nM
CC(C)c1nc2c(c(Nc3ccc(OC(F)(F)F)cc3)n1)CCN(c1ncccc1C(F)(F)F)CC2 [Example 11, [2-Isopropyl-7-(3-trifluoromethyl-pyridin-2-yl)-6,7,8,9-tetrahydro-5H-pyrimido[4,5-d]azepin-4-yl]-(4-trifluoromethoxy-phenyl)-amine] | 200 nM
CC(C)c1nc2c(c(Nc3ncccn3)n1)CCN(c1ncccc1C(F)(F)F)CC2 [Example 107, [2-Isopropyl-7-(3-trifluoromethyl-pyridin-2-yl)-6,7,8,9-tetrahydro-5H-pyrimido[4,5-d]azepin-4-yl]-pyrimidin-2-yl-amine] | > 20000 nM
CC(C)(C)c1ccc(Nc2nc(N3CCCCCC3)nc3c2CCN(c2ncccc2C(F)(F)F)CC3)cc1 | 10 nM
CC(C)c1nc2c(c(NCCc3cccc(Cl)c3)n1)CCN(c1ncccc1C(F)(F)F)CC2 [Example 123, N-[2-(3-Chlorophenyl)ethyl]-2-(1-methylethyl)-7-[3-(trifluoromethyl)pyridin-2-yl]-6,7,8,9-tetrahydro-5H-pyrimido[4,5-d]azepin-4-amine] | 990 nM
CC(C)c1nc2c(c(Nc3ccc(C(=O)O)cc3)n1)CCN(c1ncccc1C(F)(F)F)CC2 | > 20000 nM
CN1CCC(C)(C)c2ccc(Nc3nc(S(C)(=O)=O)nc4c3CCN(c3ncccc3C(F)(F)F)CC4)cc21 | > 20000 nM
CN(C)c1nc2c(c(Nc3ccc(S(N)(=O)=O)cc3)n1)CCN(c1ncccc1C(F)(F)F)CC2 | > 20000 nM
CC(C)c1nc2c(c(NCc3ccccc3Cl)n1)CCN(c1ncccc1C(F)(F)F)CC2 [Example 121] | > 20000 nM
CN(C)CCN(C)c1nc2c(c(Nc3ccc(C(F)(F)F)c(Cl)c3)n1)CCN(c1ncccc1C(F)(F)F)CC2 [Example 226, N^4-[3-Chloro-4-(trifluoromethyl)phenyl]-N^2-[2-(dimethylamino)ethyl]-N^2-methyl-7-[3-(trifluoromethyl)pyridin-2-yl]-6,7,8,9-tetrahydro-5H-pyrimido[4,5-d]azepine-2,4-diamine] | 1730 nM
CN(C)CCN(C)c1nc2c(c(NCc3ccc(Cl)c(Cl)c3)n1)CCN(c1ncccc1C(F)(F)F)CC2 [Example 227] | > 20000 nM
CN(C)CCN(C)c1nc2c(c(Nc3ccc(C(F)(F)F)cn3)n1)CCN(c1ncccc1C(F)(F)F)CC2 [Example 195, N^2-[2-(Dimethylamino)ethyl]-N^2-methyl-7-[3-(trifluoromethyl)pyridin-2-yl]-N^4-[5-(trifluoromethyl)pyridin-2-yl]-6,7,8,9-tetrahydro-5H-pyrimido[4,5-d]azepine-2,4-diamine] | 4320 nM

target: T1, rat TRPV1; assay: cell-based; conditions: Rat IC50 (μM)

Structure (SMILES) | IC50
CC(C)(C)c1nc2c(c(Nc3ccc(C(F)(F)F)cc3)n1)CCN(c1ncccc1C(F)(F)F)CC2 | 0.62 µM
